# Apparent affinities of Ab-91 variants for a coronavirus HR2 peptide

Data: MIT Lincoln Laboratory AlphaSeq set, Engelhart et al. 2022, doi:10.1038/s41597-022-01779-4, as distributed in FLAb.

The target is the same throughout: PDVDLGDISGINAS, from the HR2 region of SARS-CoV-2 spike.

Parent: Ab-91, a human scFv built as VL, the linker GGGGSGGGGSGGGGS, VH. Only the CDRs of the heavy chain vary.
VL: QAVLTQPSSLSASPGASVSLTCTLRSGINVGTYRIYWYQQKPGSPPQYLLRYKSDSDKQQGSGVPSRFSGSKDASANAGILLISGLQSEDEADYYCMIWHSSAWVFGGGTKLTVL
VH: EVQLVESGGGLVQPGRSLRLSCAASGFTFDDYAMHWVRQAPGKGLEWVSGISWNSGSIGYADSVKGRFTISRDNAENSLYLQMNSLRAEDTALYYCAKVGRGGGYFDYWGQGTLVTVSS

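The parent was found by panning a naive human phage display library on the peptide. Library AAYL51 holds single substitutions and randomly drawn double and triple substitutions in the CDRs. The scFvs were displayed on barcoded MATa yeast, the peptide on MATalpha yeast. The frequency of each diploid, read from paired DNA barcodes, reflects how well the two displayed proteins bind. Scores were corrected for input abundance and mapped to Kd with protein pairs of known affinity run in the same pool. Mating was done three times.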

Each variant is given by its three heavy chain CDRs, as the data file delimits them; those of the parent are GFTFDDYAMH, GISWNSGSIGYADSVK, VGRGGGYFDY. Values are log10 of the apparent Kd in nM; lower means stronger binding. Replicates are averaged; those with no signal do not enter the mean. A pair that was not seen in any replicate is written "not detected"; this usually means weak binding, but a binder can also be missed.

"mean, log10 nM",replicates with signal,signal with controls,CDR-H1,CDR-H2,CDR-H3
not detected,0/3,1/9,GMTFDDYAMH,GISWNSGSIGYADSVK,VVRGGPYFDY
3.58,1/3,1/9,GFTFDDYAMH,GISWQSGSIGYADSVK,VGREGGMFDY
not detected,0/3,0/9,GFTFDDHAMH,GISWNSGSIGYHDSVK,LGRGGGYFDY
4.71,2/3,6/9,GFSFDDYAMH,GISWNSGSIGYADSVK,MDRGGGYFDY
4.96,3/3,3/9,GYTFDDYAMH,GISWNSGSIHYADSVK,PGRGGGYFDY
1.37,2/3,0/9,GFTFPDYAMH,GISWNSGSIGYADSVY,VGRGGGYFEY
3.16,3/3,0/9,GFTFDYYPMH,GISWNSGTIGYADSVK,VGRGGGYFDY
not detected,0/3,1/9,GFCFDDYAMH,GISWNSGSDGYADSVK,VMRGGGYFDY
2.10,3/3,1/9,GFTFYDYAMH,GISWNSASFGYADSVK,VGRGGGYFDY
3.39,1/3,0/9,GFTFDDYAMH,GISNNSGSKAYADSVK,VGRGGGYFDY
not detected,0/3,0/9,QFSFDDYAMH,GISWNSGSIGRADSVK,VGRGGGYFDY
4.24,2/3,1/9,GFTFDDYAMR,GISWNSGNIGYADSVK,VGRGGGYFDF
not detected,0/3,0/9,GFTFDDYAMH,GISWNSFSIGYAFSVK,VGRGGSYFDY
3.21,3/3,7/9,AFVFDDYAMH,GISWNSGSIGFADSVK,VGRGGGYFDY
3.46,1/3,1/9,GFTFDDRAMH,GISWNSVSIGYHDSVK,VGRGGGYFDY
not detected,0/3,2/9,GFTFDDYAMH,GISWHSGHIGYADSVK,VGRGGGYEDY
5.68,2/3,3/9,GFTPDDYAMH,GISWNSGSIGKADSVK,VGRGFGYFDY
not detected,0/3,1/9,GFTFDDYNMH,GIAWNSGSIGYADSVK,VGRGGGYFDY
not detected,0/3,0/9,GFTFDDYAMH,GISWTSGLIGYADSVK,VGRGGGKFDY
5.11,1/3,3/9,GETFDDYAMH,GISWNPGSIGYADHVK,VGRGGGYFDY
not detected,0/3,0/9,GFTQDDYAMH,VISWNSGSIGYADSVK,VGRGGGYGDY
not detected,0/3,1/9,GMTVDDYAMH,GISWNSGSIGYADSVK,VGRGGGWFDY
4.28,2/3,2/9,GFTFDDYAMH,GISWNSGSINYAKSVK,VGTGGGYFDY
4.74,1/3,3/9,IFTFDDYAMY,GISWNSGSIGYADSVK,VGRGGDYFDY
5.26,1/3,3/9,MFTFDDYAMH,GISWNSGSIGYADWVK,VGRVGGYFDY
not detected,0/3,0/9,GFTFDMYAMH,GISWNSGPIGYADSVK,VGRIGGYFDY
3.32,1/3,3/9,GFTFDDYHCH,DISWNSGSIGYADSVK,VGRGGGYFDY
not detected,0/3,0/9,GFTFDDYWMH,GISWNSGSIGRGDSVK,VGRGGGYFDY
1.66,3/3,4/9,GFTFDQYAMH,GISWNSISIGYADSVK,VGRGGGYSDY
not detected,0/3,1/9,GFTFDDYAMH,GISWNSGSIGYADSVK,TGRGYGYFDY
not detected,0/3,0/9,QFTFDDYAMH,GNSWNSGSIGYADSVK,VSRGGGYFDY
5.47,1/3,5/9,GFTDDDYAMH,GISWNSGSIGYADSVT,VGRGGGYFDK
4.65,1/3,0/9,GFTFDDYAHH,GASWNSGSIGCADSVK,VGRGGGYFDY
3.28,1/3,0/9,GFTFDDYAMH,GISWNSWSIDYADSVK,VGRGGGYEDY
4.69,2/3,4/9,GFTFDDYAMH,GISRNSGCIGYADSVR,VGRGGGYFDY
not detected,0/3,2/9,GFTFDDYAMH,GISHNSGSIGYPGSVK,VGRGGGYFDY
3.95,2/3,4/9,GFTFDDYAMH,GISWNSNSIGYADSVK,VGRMGGYFMY
not detected,0/3,0/9,GFTFDDYAME,GQSWNSGSIGYADSVK,VGRGGGYFDY
4.65,2/3,3/9,GFTFDDYAMH,YISWNSGSKGYADSGK,VGRGGGYFDY
5.38,3/3,6/9,GFVFDDYAMH,GIAWNSGSIGYADSVK,VGRGTGYFDY
not detected,0/3,0/9,GFTFDDYAMH,GISWNSGCIGYADSVK,VGRYKGYFDY
4.56,3/3,8/9,GFTFDDYAMH,GISHFSGSIGYADPVK,VGRGGGYFDY
4.21,1/3,5/9,GFTFDDYAMH,GISWVSGSIGYADSVK,VGMGWGYFDY
not detected,0/3,1/9,GFTFCDYAMH,GISWNSGSIGPADSVK,VSRGGGYFDY
not detected,0/3,0/9,GFTFDDYAEH,GISWNSGSIGYADQVK,VGRNGGYFDY
not detected,0/3,1/9,GFTFDDYAMH,GISWNSGSIGAADSVK,VPRGGHYFDY
2.17,3/3,1/9,GFTFDDYAMH,GISANSGSKGYADSVE,VGRGGGYFDY
not detected,0/3,0/9,GFTFDDYAMH,EISWRSGSIGYADSYK,VGRGGGYFDY
3.16,2/3,0/9,KFTFDDYAMH,GISWNSTSIGYADSVK,VGRGPGYFDY
3.60,2/3,0/9,GFTFDDYAMH,GQSWNHGSIGYVDSVK,VGRGGGYFDY
not detected,0/3,0/9,GFTFDDAAMH,GISWNAGSIGYADSVK,VGRGGGDFDY
not detected,0/3,1/9,GFTFDDYAMH,WISWNSGSIFYADSVK,VGRSGGYFDY
not detected,0/3,1/9,GETFDDYAMH,GISWNSGSIGGADSEK,VGRGGGYFDY
not detected,0/3,0/9,GFTFDDHKMH,GISWNSGSIGYQDSVK,VGRGGGYFDY
not detected,0/3,0/9,GFTFDDYAMH,GISWNSGCIGYAYSWK,VGRGGGYFDY
4.23,2/3,1/9,GFTQEDYAMH,GESWNSGSIGYADSVK,VGRGGGYFDY
2.88,3/3,1/9,GFTFDDYAMH,GISWNSGSNGYGDSVK,VGRGGGYFDY
not detected,0/3,1/9,GFTFDDYAMH,GISWNSGHIGYADGVK,VGRMGGYFDY
4.96,2/3,3/9,GFTKDDYAMH,GISWNSGSIGYADSVK,VGVGGGYFDS
6.00,2/3,5/9,GFNFDDYVMH,GWSWNSGSIGYADSVK,VGRGGGYFDY
not detected,0/3,0/9,GFTFDDYAMH,GISWNSGSPGYADSVK,VGRGSGYFPY
4.43,3/3,3/9,GFTFDDIAMH,GISWNSGSIGYADSVK,VGRGGGYFIT
3.07,3/3,3/9,GFTFDDYAMH,GISWNSGSIGYADSVK,VGAGGQYFDY

The closing 9 entries, repeated:

{"CDR-H1": "GFTFDDYAMH", "CDR-H2": "GISWNSGCIGYAYSWK", "CDR-H3": "VGRGGGYFDY", "mean, log10 nM": "not detected", "replicates with signal": "0/3", "signal with controls": "0/9"}
{"CDR-H1": "GFTQEDYAMH", "CDR-H2": "GESWNSGSIGYADSVK", "CDR-H3": "VGRGGGYFDY", "mean, log10 nM": "4.23", "replicates with signal": "2/3", "signal with controls": "1/9"}
{"CDR-H1": "GFTFDDYAMH", "CDR-H2": "GISWNSGSNGYGDSVK", "CDR-H3": "VGRGGGYFDY", "mean, log10 nM": "2.88", "replicates with signal": "3/3", "signal with controls": "1/9"}
{"CDR-H1": "GFTFDDYAMH", "CDR-H2": "GISWNSGHIGYADGVK", "CDR-H3": "VGRMGGYFDY", "mean, log10 nM": "not detected", "replicates with signal": "0/3", "signal with controls": "1/9"}
{"CDR-H1": "GFTKDDYAMH", "CDR-H2": "GISWNSGSIGYADSVK", "CDR-H3": "VGVGGGYFDS", "mean, log10 nM": "4.96", "replicates with signal": "2/3", "signal with controls": "3/9"}
{"CDR-H1": "GFNFDDYVMH", "CDR-H2": "GWSWNSGSIGYADSVK", "CDR-H3": "VGRGGGYFDY", "mean, log10 nM": "6.00", "replicates with signal": "2/3", "signal with controls": "5/9"}
{"CDR-H1": "GFTFDDYAMH", "CDR-H2": "GISWNSGSPGYADSVK", "CDR-H3": "VGRGSGYFPY", "mean, log10 nM": "not detected", "replicates with signal": "0/3", "signal with controls": "0/9"}
{"CDR-H1": "GFTFDDIAMH", "CDR-H2": "GISWNSGSIGYADSVK", "CDR-H3": "VGRGGGYFIT", "mean, log10 nM": "4.43", "replicates with signal": "3/3", "signal with controls": "3/9"}
{"CDR-H1": "GFTFDDYAMH", "CDR-H2": "GISWNSGSIGYADSVK", "CDR-H3": "VGAGGQYFDY", "mean, log10 nM": "3.07", "replicates with signal": "3/3", "signal with controls": "3/9"}

Parent in this assay: reference entry 1.86, copy in this library 0.88. Three control strains display no target. For library AAYL51, 21% of the pairings with them gave a signal, with a median of 4.54 and one signal in twenty below 3.26, so weak values seen in few replicates may be background. For each scFv, signals with the empty controls are counted beside the result.